scFv variants of Ab-95 (light chain) against a SARS-CoV-2 spike peptide

Source: Engelhart et al. 2022 (doi:10.1038/s41597-022-01779-4), MIT Lincoln Laboratory and A-Alpha Bio; data file from the FLAb repository.

The target is the same throughout: PDVDLGDISGINAS, from the HR2 region of SARS-CoV-2 spike.

The variants keep the heavy chain, the linker and the frameworks of Ab-95 (scFv order VH, the linker GGGGSGGGGSGGGGS, VL).
VH: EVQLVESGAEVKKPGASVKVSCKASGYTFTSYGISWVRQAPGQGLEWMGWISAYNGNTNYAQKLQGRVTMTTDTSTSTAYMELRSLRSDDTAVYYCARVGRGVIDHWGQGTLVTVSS
VL: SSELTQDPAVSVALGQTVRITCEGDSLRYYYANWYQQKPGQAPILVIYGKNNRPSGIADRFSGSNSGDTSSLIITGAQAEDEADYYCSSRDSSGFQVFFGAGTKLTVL

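The starting antibody came from a phage panning campaign against this peptide. Variants in AAYL52 differ from the parent at up to three CDR positions; double and triple changes were sampled at random. AlphaSeq pools MATa yeast showing the antibodies with MATalpha yeast showing the peptide. After mating in shaken culture at 30 °C for 16 h, diploids were selected and their barcode pairs sequenced. Scores were corrected for input abundance and mapped to Kd with protein pairs of known affinity run in the same pool. There are three technical replicates.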

Substitutions are numbered in sequence along the VL above, starting at 1 (not Kabat). Affinities are written as log10 Kd with Kd in nM; a lower number is a better binder. A pair that was not seen in that replicate is written "ND"; this usually means weak binding, but a binder can also be missed. In this assay the parent's reference entry averaged 2.31; its copy inside this library read 2.25. As a blank, each scFv also met three strains without target: over library AAYL52, 28% of these pairings were detected, typically at 3.91 and seldom below 2.90. For each scFv, signals with the empty controls are counted beside the result, with their mean in brackets.

| changes | log10 Kd, replicates | signal with controls |
|---|---|---|
| N51W/V97C | ND / ND / ND | 0/9 |
| Y29E/G49W/K50T | 3.87 / 4.49 / 3.74 | 6/9 (4.03) |
| P54T/F95W/V97P | ND / ND / 4.42 | 1/9 (3.68) |
| Y30N/N51K/Q96H | 1.40 / 1.18 / 1.07 | 1/9 (2.87) |
| Y29H/P54G | 2.18 / 1.89 / 1.45 | 1/9 (3.30) |
| L27T/P54Y/F98K | ND / ND / ND | 0/9 |
| S26Y/N51H/G94A | 4.50 / ND / ND | 2/9 (4.38) |
| S89Y/R90D/D91K | 2.12 / 2.75 / 1.74 | 3/9 (5.19) |
| S26F/A32W/G49Y | ND / 4.93 / ND | 1/9 (3.18) |
| R28H/S93L/Q96A | 2.37 / 2.99 / 2.05 | 6/9 (3.61) |
| R28S/S88Y | ND / ND / ND | 3/9 (3.86) |
| S92A/S93Y/G94N | 2.20 / 2.00 / 2.51 | 2/9 (3.35) |
| Y30I/N52P/Q96V | ND / ND / ND | 1/9 (4.15) |
| Y30C/N33K/K50M | 2.79 / 2.75 / 3.42 | 4/9 (3.95) |
| Y29P/G49E/Q96E | 3.33 / 3.12 / 2.73 | 4/9 (3.89) |
| N51L/R53Q | 3.15 / ND / ND | 1/9 (3.70) |
| R53Q/S55L/R90L | ND / 4.52 / ND | 3/9 (4.30) |
| S26R/A32D/Q96Y | 5.51 / ND / ND | 2/9 (4.46) |
| D25F/P54W/G94M | 3.85 / 2.90 / ND | 3/9 (5.16) |
| L27T/S89C/S93T | 2.39 / 2.31 / 2.38 | 3/9 (4.20) |
| L27H/Y31I/G49A | ND / ND / 2.83 | 3/9 (3.51) |
| A32I/S89K/S93A | 4.28 / 3.56 / ND | 3/9 (4.31) |
| Y30M/Y31L/G94N | ND / 4.90 / ND | 4/9 (4.25) |
| Y30R/S92M/G94F | 2.84 / 2.79 / 3.81 | 2/9 (3.14) |
| G49R/N51W/G94M | ND / 3.58 / 3.27 | 0/9 |
| L27E/R28G/G49K | 3.32 / 4.83 / ND | 4/9 (3.97) |
| R28V/Q96P/F98M | 2.85 / 3.03 / ND | 1/9 (3.60) |
| G49N/P54A | 2.90 / 2.85 / 3.11 | 2/9 (3.91) |
| S26D/Y29K/R53W | ND / ND / 4.06 | 3/9 (3.94) |
| R28G/N52W/S89C | 2.28 / 2.52 / 3.07 | 3/9 (3.56) |
| R28T/R53N/D91I | 5.51 / ND / ND | 5/9 (3.99) |
| L27C/S55M/S93D | ND / ND / 4.48 | 2/9 (4.06) |
| Y31K/R90S/S93K | ND / 3.62 / ND | 5/9 (3.75) |
| S89L/D91H/Q96N | 3.22 / 2.68 / 3.71 | 2/9 (3.75) |
| E23T/R53H/F95I | 3.04 / 2.74 / 2.81 | 2/9 (4.00) |
| L27F/N33W/S88K | 3.78 / 3.99 / 4.75 | 2/9 (4.37) |
| E23C/G24H/D25E | ND / ND / 1.71 | 0/9 |
| S89Y/S92N/Q96C | 2.40 / 2.38 / 1.98 | 4/9 (3.74) |
| G24H/G49N/N51K | ND / 3.90 / ND | 2/9 (3.12) |
| D91P/G94L/F95P | ND / 3.29 / ND | 1/9 (3.98) |
| Y29R/Y31T/R53W | 3.24 / 3.89 / 3.49 | 2/9 (4.77) |
| S26D/R28E/D91K | 4.19 / 3.65 / ND | 5/9 (3.83) |